Amino acid sequences for entries named in this document (tags omitted). A change or cut given only in a name is not applied to a line headed by its entry. Chains listed by the source or under a name are the forms on record and can include a tag or linker.
UniProt P41144: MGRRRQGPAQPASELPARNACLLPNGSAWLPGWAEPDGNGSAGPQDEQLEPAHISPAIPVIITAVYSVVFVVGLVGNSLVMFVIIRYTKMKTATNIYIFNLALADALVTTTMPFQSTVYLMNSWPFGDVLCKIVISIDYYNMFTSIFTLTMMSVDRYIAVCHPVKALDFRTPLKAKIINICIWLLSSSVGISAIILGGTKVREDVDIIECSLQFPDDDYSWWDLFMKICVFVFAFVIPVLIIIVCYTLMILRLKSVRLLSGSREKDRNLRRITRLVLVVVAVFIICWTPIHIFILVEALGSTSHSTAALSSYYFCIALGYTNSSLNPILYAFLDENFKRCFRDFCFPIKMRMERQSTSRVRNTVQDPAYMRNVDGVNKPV
UniProt P35372, whole entry: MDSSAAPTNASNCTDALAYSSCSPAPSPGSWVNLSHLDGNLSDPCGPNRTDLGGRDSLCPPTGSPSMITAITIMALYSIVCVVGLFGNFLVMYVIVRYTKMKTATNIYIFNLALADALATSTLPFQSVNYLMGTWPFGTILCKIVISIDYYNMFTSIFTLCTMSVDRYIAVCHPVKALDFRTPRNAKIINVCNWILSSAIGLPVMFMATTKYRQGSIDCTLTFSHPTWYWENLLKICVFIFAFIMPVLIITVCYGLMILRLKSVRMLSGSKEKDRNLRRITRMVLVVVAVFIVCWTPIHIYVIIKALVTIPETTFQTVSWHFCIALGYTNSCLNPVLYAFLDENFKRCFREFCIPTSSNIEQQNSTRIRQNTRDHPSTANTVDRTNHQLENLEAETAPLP
UniProt P35462, as listed by the source: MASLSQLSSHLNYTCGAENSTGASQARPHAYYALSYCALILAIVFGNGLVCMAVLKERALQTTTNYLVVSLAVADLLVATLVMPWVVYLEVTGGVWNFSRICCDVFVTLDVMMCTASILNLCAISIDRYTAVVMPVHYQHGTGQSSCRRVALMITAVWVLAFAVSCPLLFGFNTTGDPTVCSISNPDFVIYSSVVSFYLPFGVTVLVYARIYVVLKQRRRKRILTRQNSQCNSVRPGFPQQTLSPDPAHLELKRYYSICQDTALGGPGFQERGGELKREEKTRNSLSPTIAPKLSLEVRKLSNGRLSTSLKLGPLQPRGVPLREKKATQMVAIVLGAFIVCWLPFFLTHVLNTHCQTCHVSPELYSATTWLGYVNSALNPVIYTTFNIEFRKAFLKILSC
UniProt P14416, whole entry: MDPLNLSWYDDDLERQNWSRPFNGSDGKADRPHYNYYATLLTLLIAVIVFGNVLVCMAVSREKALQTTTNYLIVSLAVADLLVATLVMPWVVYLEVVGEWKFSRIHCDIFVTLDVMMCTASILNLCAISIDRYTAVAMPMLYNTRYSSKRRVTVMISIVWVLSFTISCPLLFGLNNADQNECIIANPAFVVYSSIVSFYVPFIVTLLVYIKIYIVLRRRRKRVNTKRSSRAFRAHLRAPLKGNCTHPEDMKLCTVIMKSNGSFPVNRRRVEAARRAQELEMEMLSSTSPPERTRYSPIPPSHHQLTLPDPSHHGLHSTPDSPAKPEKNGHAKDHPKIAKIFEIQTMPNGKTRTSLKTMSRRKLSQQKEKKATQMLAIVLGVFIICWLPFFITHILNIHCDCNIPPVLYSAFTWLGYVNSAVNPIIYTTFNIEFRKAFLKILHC
UniProt P14842, whole entry: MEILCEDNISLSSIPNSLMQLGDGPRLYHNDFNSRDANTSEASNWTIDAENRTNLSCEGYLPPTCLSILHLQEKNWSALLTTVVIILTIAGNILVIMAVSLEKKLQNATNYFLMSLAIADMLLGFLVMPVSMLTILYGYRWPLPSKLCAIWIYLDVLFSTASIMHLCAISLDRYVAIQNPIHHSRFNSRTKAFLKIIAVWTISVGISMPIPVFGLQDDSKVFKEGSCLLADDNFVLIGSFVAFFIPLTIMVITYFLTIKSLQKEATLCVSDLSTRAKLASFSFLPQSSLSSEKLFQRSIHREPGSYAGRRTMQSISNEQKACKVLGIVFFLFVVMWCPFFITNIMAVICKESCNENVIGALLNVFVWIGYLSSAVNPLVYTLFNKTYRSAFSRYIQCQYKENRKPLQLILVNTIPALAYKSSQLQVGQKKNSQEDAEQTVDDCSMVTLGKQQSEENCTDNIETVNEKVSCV

According to BindingDB's records for PubMed 9686407 (Sri International, 1998):

Legend:
[1] = molecular target: Kappa-type opioid receptor (Cavia porcellus, UniProt P41144)
Mu-type opioid receptor = Mu-type opioid receptor (Homo sapiens, UniProt P35372)
D(3) dopamine receptor = D(3) dopamine receptor (Homo sapiens, UniProt P35462)
D(2) dopamine receptor = D(2) dopamine receptor (Homo sapiens, UniProt P14416)
[2] = molecular target: 5-hydroxytryptamine receptor 2A (Rattus norvegicus, UniProt P14842)
[3] = molecular target: T1, 5-hydroxytryptamine receptor 2C (Rattus norvegicus, UniProt P08909)
T1 sequence (P08909 whole entry): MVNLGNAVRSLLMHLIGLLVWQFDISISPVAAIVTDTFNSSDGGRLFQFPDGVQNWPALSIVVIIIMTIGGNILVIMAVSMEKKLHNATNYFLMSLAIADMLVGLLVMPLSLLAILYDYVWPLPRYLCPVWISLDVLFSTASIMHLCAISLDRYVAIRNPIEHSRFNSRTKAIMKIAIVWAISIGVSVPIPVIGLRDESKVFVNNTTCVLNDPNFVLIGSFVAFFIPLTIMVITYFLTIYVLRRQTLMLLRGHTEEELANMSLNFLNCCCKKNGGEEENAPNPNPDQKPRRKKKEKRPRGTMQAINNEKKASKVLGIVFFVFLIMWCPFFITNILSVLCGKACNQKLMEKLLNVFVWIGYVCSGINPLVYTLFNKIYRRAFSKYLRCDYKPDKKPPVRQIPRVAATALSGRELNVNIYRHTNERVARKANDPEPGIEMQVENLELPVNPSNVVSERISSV

For `CC[C@H](C)[C@H](NC(=O)[C@H](CCCNC(=N)N)NC(=O)[C@H](CCCNC(=N)N)NC(=O)[C@H](CC(C)C)NC(=O)[C@H](Cc1ccccc1)NC(=O)CNC(=O)CNC(=O)[C@@H](N)Cc1ccc(O)cc1)C(=O)N[C@@H](CCCNC(=N)N)C(=O)N1CCC[C@H]1C(=O)N[C@@H](CCCCN)C(=O)N[C@@H](CC(C)C)C(=O)N[C@@H](CCCCN)C(=O)O` [Dynorphin A (1-13)], the Ki [1] was 0.4 nM.
Compound `CCC12CCN(CC3(O)CC3)C(Cc3ccc(O)cc31)C2(C)C` (stereo not drawn) has a Ki [1] of 0.1 nM and a Ki (Mu-type opioid receptor) of 0.2 nM.
`CC(C)C[C@H](NC(=O)[C@H](Cc1ccccc1)NC(=O)CNC(=O)CNC(=O)[C@@H](N)Cc1ccc(O)cc1)C(=O)N[C@@H](CCCN=C(N)N)C(=O)N[C@@H](CCCN=C(N)N)C(=O)N[C@@H](CCC(N)=O)C(=O)N[C@@H](Cc1ccccc1)C(=O)N[C@@H](CCCCN)C(=O)N[C@H](C(=O)N[C@H](C(=O)N[C@H](C(=O)O)[C@@H](C)O)C(C)C)C(C)C` [Dynorphin B (1-13)] gave a Ki [1] of 0.9 nM.
`CCCN1CCCC(c2cccc(O)c2)C1` (stereo not drawn) [CAS_85976-54-1] showed a Ki (D(3) dopamine receptor) of 262 nM and a Ki (D(2) dopamine receptor) of 192 nM.
For `Cc1nc2sccn2c(=O)c1CCN1CCC(=C(c2ccc(F)cc2)c2ccc(F)cc2)CC1`, the Ki [2] was 4.7 nM and the Ki [3] was 11 nM.
